The results in this text go back to PubChem BioAssay AID487 (Columbia University Molecular Screening Center, 2006).

Each structure is given as a SMILES string. Only a part is listed here, and it is no random draw. Some tests of the compounds listed are not included; inactive here does not mean inactive elsewhere. Calls of active or inactive are those of the source.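 How the source made its calls: active means visually confirmed hit in the image check and inhibition above 20%; inconclusive means visually confirmed hit but inhibition not above 20%; inactive means no visual hit in the image check.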

A short description of this assay: endothelial E-selectin expression blockers – imaging, HUVEC, immunofluorescence, MLSMR starter and 10KST1 sets, primary screen (AID 487).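 Further: signal is fraction of cell area covered by stained E-selectin grains.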 The settings on record: HUVEC TNFalpha-induced E-selectin immunofluorescence imaging; at 2 µM; hits give high values.
For orientation: inhibition means the drop in the measured response relative to a control, in per cent. `O=C(OC1CN2CCC1CC2)C(CO)(c1ccccc1)c1ccccc1` (stereo unspecified): the inhibition is inactive: -14.3%.
